OPERA 2.9 data: water solubility values

From the experimental data distributed with OPERA 2.9.

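OPERA's authors assembled the values from existing databases and did not measure them anew. A listed value is a point estimate from one report or more. Method, purity and exact conditions of the single measurements are not given. Where a salt, mixture or single isomer is drawn, the source does not say that exactly this form was tested. Some upstream entries may be estimates or bounds without being marked so.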

Water solubility is log10 of mol/L, nominally at 25 °C; higher is more soluble.

- Nc1cccc2c(S(=O)(=O)O)cccc12 [1-Naphthalenesulfonic acid, 5-amino-]: log solubility -2.349 (log10 mol/L)
- O=C(O)c1cn(-c2ccc(F)cc2)c2cc(N3CCNCC3)c(F)cc2c1=O [Sarafloxacin]: log solubility -3.59 (log10 mol/L)
- O=[N+]([O-])c1ccc(N=Nc2ccc(N(CCO)CCO)cc2Cl)cc1: log solubility -5.959 (log10 mol/L)
- CC(=O)c1ccc(N)cc1 [4-Aminoacetophenone]: log solubility -1.61 (log10 mol/L)
- CCOC(=O)Nc1ccc2c(c1)N(C(=O)CCN1CCOCC1)c1ccccc1S2 [Moricizine]: log solubility -4.101 (log10 mol/L)
- CC(=O)C(N=Nc1ccccc1C(F)(F)F)C(=O)Nc1ccc2[nH]c(=O)[nH]c2c1 (stereo not drawn): log solubility -7.456 (log10 mol/L)
- Cc1cc(N(CCO)CCC#N)ccc1N=Nc1ccc([N+](=O)[O-])cc1: log solubility -6.722 (log10 mol/L)
- Cc1cnc2nc[nH]c(=O)c2n1 [6-Methyl-3H-pteridin-4-one]: log solubility -1.649 (log10 mol/L)
- COc1cc(Cl)c(Cl)c(Cl)c1O [4,5,6-Trichloroguaiacol]: log solubility -4.04 (log10 mol/L)
- O=C(OCC(=O)N1CCC1)c1ccccc1 [2-(Azetidin-1-yl)-2-oxoethyl benzoate]: log solubility -1.61 (log10 mol/L)
- Oc1ccc(CCc2ccccc2)c(O)c1 [4-(2-Phenylethyl)-1,3-benzenediol]: log solubility -2.718 (log10 mol/L)
- COc1cc2c3c(ccc4c5ccc6c7c(cc(OC)c(c1c34)c75)-c1ccccc1C6=O)C(=O)c1ccccc1-2 [C.I. Vat Green 1]: log solubility -5.599 (log10 mol/L)
- CC[C@H](NC(C)C)[C@H](O)c1ccc(O)c2[nH]c(=O)ccc12 [Procaterol]: log solubility -2.946 (log10 mol/L)
- CCC(=O)c1cccc(Cl)c1 [3'-Chloropropiophenone]: log solubility -1.847 (log10 mol/L)
- CCn1c2ccccc2c2c3c(ccc21)N=c1c(Cl)c2c(c(Cl)c1O3)=Nc1ccc3c(c1O2)c1ccccc1n3CC [C.I. Pigment Violet 23]: log solubility -7.373 (log10 mol/L)
- CN1C(CC(=O)c2ccccc2)CCCC1CC(O)c1ccccc1.Cl (stereo not drawn): log solubility -1.175 (log10 mol/L)
- C=C(C)C1CCC(C)(O)CC1 (stereo not drawn) [beta-Terpineol]: log solubility -1.846 (log10 mol/L)
- COc1ccc2cc(CCC(C)=O)ccc2c1 [Nabumetone]: log solubility -5.073 (log10 mol/L)
- O=C(O)CS(=O)(=O)CCS(=O)(=O)CC(=O)O [2-[2-(carboxymethylsulfonyl)ethylsulfonyl]acetic acid]: log solubility -1.73 (log10 mol/L)
- NC(=O)NC(=O)Cc1ccccc1 [Phenacemide]: log solubility -2.226 (log10 mol/L)
- CCC1(C)C(=O)NC(=O)N1CN1C(=O)NC(=O)C1(C)CC (stereo not drawn) [1,1'-Methylenebis(5-ethyl-5-methylimidazolidine-2,4-dione)]: log solubility -2.518 (log10 mol/L)
- CCOC(=O)Nc1ccccc1 [Carbamic acid, phenyl-, ethyl ester]: log solubility -2.37 (log10 mol/L)
- O=C(O)Cc1c[nH]c2ccc(O)cc12 [(5-Hydroxy-1H-indol-3-yl)acetic acid]: log solubility -0.901 (log10 mol/L)
- Clc1ccc(Oc2cc(Cl)c(Cl)cc2Cl)c(Cl)c1 [2,2',4,4',5-pentachlorodiphenyl ether]: log solubility -7.61 (log10 mol/L)
- O=S(=O)(O)c1cc(S(=O)(=O)O)c2c(N=Nc3cccc4ccccc34)c(O)ccc2c1: log solubility -0.339 (log10 mol/L)
- O=C1OC2(c3ccccc31)c1cc(I)c(O)c(I)c1Oc1c2cc(I)c(O)c1I [C.I. Solvent Red 140]: log solubility -3.077 (log10 mol/L)
- CCS(=O)(=O)CC: log solubility 0.04 (log10 mol/L)
- Cc1cc(N(CCO)CCO)ccc1N=Nc1ccc([N+](=O)[O-])cc1Cl: log solubility -6.57 (log10 mol/L)
- CC(=O)c1nc2c(=O)n(C)c(=O)n(C)c2nc1C [6-Acetyl-1,3,7-trimethylpteridine-2,4(1H,3H)-dione]: log solubility -2.073 (log10 mol/L)
- CNC(=O)Nc1ccccc1 [N-Methyl-N'-phenylurea]: log solubility -1.26 (log10 mol/L)
- CCCOc1ccc(S(=O)(=O)NCCC2CCCN2C)cc1-c1nc(=O)c2c([nH]1)c(CCC)nn2C (stereo not drawn) [Udenafil]: log solubility -3.811 (log10 mol/L)
- O=C1c2c(O)ccc(O)c2C(=O)c2c(Cl)ccc(Cl)c21 [1,4-Dichloro-5,8-dihydroxyanthraquinone]: log solubility -7.418 (log10 mol/L)
- O=C(O)C(=O)c1ccc2c(c1)OCO2 [1,3-Benzodioxol-5-yl(oxo)acetic acid]: log solubility -1.191 (log10 mol/L)

2 of these entries, quoted again:

- CC(=O)c1nc2c(=O)n(C)c(=O)n(C)c2nc1C [6-Acetyl-1,3,7-trimethylpteridine-2,4(1H,3H)-dione]: log solubility -2.073 (log10 mol/L)
- O=C(O)c1cn(-c2ccc(F)cc2)c2cc(N3CCNCC3)c(F)cc2c1=O [Sarafloxacin]: log solubility -3.59 (log10 mol/L)